Data on 1 compound can be found in paper PMC3897123 (MedChemComm, 2013).

Sequences of proteins named here, by UniProt entry; tags and fusion partners are left off.
UniProt P47989, whole entry, species assumed: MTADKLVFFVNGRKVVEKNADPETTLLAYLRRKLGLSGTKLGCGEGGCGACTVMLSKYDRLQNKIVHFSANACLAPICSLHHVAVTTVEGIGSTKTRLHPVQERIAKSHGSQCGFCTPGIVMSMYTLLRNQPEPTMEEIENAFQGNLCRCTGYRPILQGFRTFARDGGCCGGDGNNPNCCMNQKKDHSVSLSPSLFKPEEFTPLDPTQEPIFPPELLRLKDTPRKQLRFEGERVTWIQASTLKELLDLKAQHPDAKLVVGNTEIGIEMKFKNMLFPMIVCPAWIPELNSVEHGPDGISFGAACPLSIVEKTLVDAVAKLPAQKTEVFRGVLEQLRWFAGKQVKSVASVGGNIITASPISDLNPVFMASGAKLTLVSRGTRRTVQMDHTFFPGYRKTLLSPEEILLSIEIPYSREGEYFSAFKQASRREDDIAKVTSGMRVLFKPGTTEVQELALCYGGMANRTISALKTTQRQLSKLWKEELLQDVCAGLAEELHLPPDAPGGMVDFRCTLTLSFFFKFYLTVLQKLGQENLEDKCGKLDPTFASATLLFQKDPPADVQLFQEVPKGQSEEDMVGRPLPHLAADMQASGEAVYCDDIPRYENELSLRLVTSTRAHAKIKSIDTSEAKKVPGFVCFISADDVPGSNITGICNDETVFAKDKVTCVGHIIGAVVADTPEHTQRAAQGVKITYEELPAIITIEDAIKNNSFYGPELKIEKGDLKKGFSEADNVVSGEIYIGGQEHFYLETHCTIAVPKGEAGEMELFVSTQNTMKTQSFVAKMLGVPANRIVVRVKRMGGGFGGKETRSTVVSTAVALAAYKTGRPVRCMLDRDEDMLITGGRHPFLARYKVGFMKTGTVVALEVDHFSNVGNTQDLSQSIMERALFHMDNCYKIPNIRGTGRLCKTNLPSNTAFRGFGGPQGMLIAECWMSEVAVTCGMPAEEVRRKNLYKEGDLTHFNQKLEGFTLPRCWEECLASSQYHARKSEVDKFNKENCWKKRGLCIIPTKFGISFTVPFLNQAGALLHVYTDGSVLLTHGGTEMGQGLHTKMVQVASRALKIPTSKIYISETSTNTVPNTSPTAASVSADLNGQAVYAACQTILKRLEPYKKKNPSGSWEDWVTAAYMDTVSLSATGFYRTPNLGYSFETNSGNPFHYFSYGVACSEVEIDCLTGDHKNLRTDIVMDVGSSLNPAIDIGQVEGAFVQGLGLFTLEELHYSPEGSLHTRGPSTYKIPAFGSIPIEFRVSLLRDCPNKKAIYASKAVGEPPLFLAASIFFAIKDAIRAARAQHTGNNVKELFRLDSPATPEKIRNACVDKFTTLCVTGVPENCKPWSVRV

The test has as its target xanthine oxidase (XO) (Homo sapiens, UniProt P47989). The following applies: various concentrations; Amplex Red detection.

With `[Cl-].c1ccc2c(c1)[I+]c1ccccc1-2` [DPI, Diphenylene iodonium], the “Effect on ROS levels produced by XO” value is “complete inhibition”.
